{
  "sequences": {"note": "The chains behind the UniProt entries cited, without tags or fusion partners.", "UniProt P04049, whole entry Y340D/Y341D": "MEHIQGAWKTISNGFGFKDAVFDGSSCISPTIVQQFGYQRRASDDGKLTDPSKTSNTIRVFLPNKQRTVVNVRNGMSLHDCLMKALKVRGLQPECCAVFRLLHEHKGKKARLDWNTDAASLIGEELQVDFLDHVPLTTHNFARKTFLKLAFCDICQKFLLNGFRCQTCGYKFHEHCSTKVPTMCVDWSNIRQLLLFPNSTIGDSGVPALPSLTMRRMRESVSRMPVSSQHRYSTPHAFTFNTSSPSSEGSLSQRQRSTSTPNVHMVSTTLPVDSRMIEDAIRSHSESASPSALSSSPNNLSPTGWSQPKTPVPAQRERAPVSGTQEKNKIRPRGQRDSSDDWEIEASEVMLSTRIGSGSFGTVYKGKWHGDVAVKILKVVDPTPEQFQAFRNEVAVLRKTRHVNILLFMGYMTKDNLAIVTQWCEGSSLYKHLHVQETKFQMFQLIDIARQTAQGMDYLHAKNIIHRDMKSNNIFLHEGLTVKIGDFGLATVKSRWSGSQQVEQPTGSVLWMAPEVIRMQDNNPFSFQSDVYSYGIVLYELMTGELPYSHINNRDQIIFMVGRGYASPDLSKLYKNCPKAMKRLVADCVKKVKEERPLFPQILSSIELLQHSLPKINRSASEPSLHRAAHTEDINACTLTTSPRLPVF"},
  "source": "patent US9273046B2",
  "about": "“Fused tricyclic compounds as Raf kinase inhibitors” (BeiGene, LTD., priority 2011, dated 2016)",
  "data": [
    {"biological_target": "C-Raf (Y340D/Y341D) (Homo sapiens (Human), UniProt P04049, Y340D/Y341D)", "experiment": "Raf IC50 assay, time-resolved fluorescence energy transfer (TR-FRET), C-Raf", "format": "biochemical", "settings": "0.5 nM C-Raf, 0.1 mM ATP, GST-tagged MEK1 substrate, 60 min preincubation", "procedure": "The assay was carried out in reactions (10 μL) containing 0.0625 nM B-Raf or 0.5 nM C-Raf, 25 mM Tris pH7.4, 10 mM MgCl2, 0.5 mM EGTA, 0.5 mM […], 5 mM beta-glycerophosphate, 0.01% Triton X-100, 2.5 mM DTT, 0.1% BSA, 0.1 mM ATP, 13.7 nM GST-tagged MEK1 (Full-length protein with K97R mutation, recombinant protein purified from bacterial expression system) and 0-5 μM compounds disclosed herein (final concentration of 1% DMSO). The enzyme was incubated with the compounds at room temperature for 60 minutes and the reactions were initiated by the addition of ATP and GST-MEK1. After incubating at room temperature for 60 minutes, an equal volume of stop buffer containing 25 mM Tris pH7.4, 400 mM KF, 50 mM EDTA, 0.01% BSA, 0.01% Triton X-100, 1 test of Eu3+ Cryptate-conjugated rabbit polyclonal antibody anti-Phospho MEK1/2 (Ser217/221) and 1 test of d2-conjugated mouse monoclonal antibody anti-glutathione S-transferase was added to stop the reactions. Plates were sealed and incubated at room temperature for 2 hours, and then the TR-FRET signals were read on BMG PHERAstar FS instrument. The IC50 for each compound was calculated by non linear regression by Graphpad Prism software.", "units": {"IC50": "nM"}, "values": [
      {"smiles": "Cc1cc2nc(C3C4Oc5cc(Cl)c(Oc6ccnc7c6CCC(=O)N7)cc5C43)[nH]c2cc1F", "note": "(racemic) [Compound 2.37, (±)-exo-5-((4-chloro-1-(6-fluoro-5-methyl-1H-benzo[d]imidazol-2-yl)-1a,6b-dihydro-1H-cyclopropa[b]benzofuran-5-yl)oxy)-3,4-dihydro-1,8-naphthyridin-2(1H)-one]", "IC50": 23},
      {"smiles": "O=C1CCc2c(Oc3ccc4c(c3)C3C(C4)C3c3nc4ccccc4[nH]3)ccnc2N1", "note": "(racemic) [Compound 1.1, (±)-exo-5-((1-(1H-benzo[d]imidazol-2-yl)-1,1a,6,6a-tetrahydrocyclopropa[a]inden-3-yl)oxy)-3,4-dihydro-1,8-naphthyridin-2(1H)-one]", "IC50": 1.4},
      {"smiles": "Cc1cc(Oc2ccnc3c2CCC(=O)N3)cc2c1OC1C(c3nc4ccc(C(F)(F)F)cc4[nH]3)C21", "note": "(racemic) [Compound 2.35, (±)-exo-5-((3-methyl-1-(6-(trifluoromethyl)-1H-benzo[d]imidazol-2-yl)-1a,6b-dihydro-1H-cyclopropa[b]benzofuran-5-yl)oxy)-3,4-dihydro-1,8-naphthyridin-2(1H)-one]", "IC50": 12},
      {"smiles": "O=C1CCc2c(Oc3ccc4c(c3)C3C(O4)C3c3nc4cc(C(F)(F)F)ccc4n3CCO)ccnc2N1", "note": "(racemic) [Compound 2.34, (±)-exo-5-((1-(1-(2-hydroxyethyl)-5-(trifluoromethyl)-1H-benzo[d]imidazol-2-yl)-1a,6b-dihydro-1H-cyclopropa[b]benzofuran-5-yl)oxy)-3,4-dihydro-1,8-naphthyridin-2(1H)-one]", "IC50": 4.2},
      {"smiles": "O=C1CCc2c(Oc3ccc4c(c3)C3C(O4)C3c3nc(C(F)(F)F)c[nH]3)ccnc2N1", "note": "(racemic) [Compound 2.33, (±)-exo-5-((1-(4-(trifluoromethyl)-1H-imidazol-2-yl)-1a,6b-dihydro-1H-cyclopropa[b]benzofuran-5-yl)oxy)-3,4-dihydro-1,8-naphthyridin-2(1H)-one]", "IC50": 0.6},
      {"smiles": "FC(F)(F)c1ccc2nc(C3C4Oc5ccc(Oc6ncnc7[nH]cnc67)cc5C43)[nH]c2c1", "note": "(racemic) [Compound 3.5, (±)-exo-6-((1-(6-(trifluoromethyl)-1H-benzo[d]imidazol-2-yl)-1a,6b-dihydro-1H-cyclopropa[b]benzofuran-5-yl)oxy)-9H-purine]", "IC50": 20}
    ]}
  ]
}
